Measured values published in EP3816180A1.

Molecular target: M13-GGS-cpHaloΔ9mer
Test: cell-based or functional assay

second order rate constant for the labelling (FP kinetics, Halo-TMR, in presence of calcium): 6700 s^-1M^-1
Substance: 9mer-GGS-CaM (from UniProt P0DP23 3-149)
